A short description of the data set: Circular dichroism spectroscopy analysis (CD spectra, variable temperature measurement, refolding). The class given is physicochemical. The note with it: Table 3, mutation study 1; MGSSHHHHHHGSS-[Y#####]. The protocol:
The respective Y variant was diluted to 0.5 mg/ml in PBS. A CD spectrum at 250-195 nm was obtained at 20° C. In addition, a variable temperature measurement (VTM) was performed to determine the melting temperature (Tm). In the VTM, absorbance was measured at 221 nm while the temperature was raised from 20° C. to 90° C. with a temperature gradient of 5° C./min. A new CD spectrum was obtained at 20° C. after the heating procedure, in order to study the refolding ability of the Y variants. The CD measurements were performed on a Jasco J-810 spectropolarimeter (Jasco Scandinavia AB) using a cell with an optical path length of 1 mm.
Produced Y variants were subjected to CD and SPR analyses according to the methods described in Example 1.
The Y variants were cloned, produced and characterized according to the general methods described in Example 1. […]
Produced Y variants were subjected to CD and SPR analyses according to the methods described in Example 1. In addition, CD spectra of selected IL-6 binding variants were also recorded at 60, 70, 80 and 90° C.
The Y variants were cloned, produced and characterized according to the general methods described in Example 1. […] In addition, CD spectra of the IL-6 binding variants were also recorded at 60, 70, 80 and 90° C.
A general note: Circular dichroism is widely used to follow secondary structure.

Data on one substance can be found in patent US11505576B2, “Polypeptides based on a scaffold” (AFFIBODY AB, priority 2018, dated 2022).

As for “Y00273: insulin binding Y variant, Y00032 with E32Q, SEQ ID NO:120 (LAEAKEAAIAELDSKGVGAYQKSFIELAKSVQHVELLKEAILADLP; Engineered insulin binding Y variant)”, the Tm stood at 46 °C.
